{
  "source": "patent US20160199463A1",
  "about": "“HDAC2 DEFENDS VASCULAR ENDOTHELIUM FROM INJURY” (The Johns Hopkins University, priority 2014, published 2016)",
  "origin": "cited, not measured here",
  "target": "T1, HDAC8 (Homo sapiens, UniProt Q9BY41)",
  "T1 sequence (Q9BY41 1-377)": "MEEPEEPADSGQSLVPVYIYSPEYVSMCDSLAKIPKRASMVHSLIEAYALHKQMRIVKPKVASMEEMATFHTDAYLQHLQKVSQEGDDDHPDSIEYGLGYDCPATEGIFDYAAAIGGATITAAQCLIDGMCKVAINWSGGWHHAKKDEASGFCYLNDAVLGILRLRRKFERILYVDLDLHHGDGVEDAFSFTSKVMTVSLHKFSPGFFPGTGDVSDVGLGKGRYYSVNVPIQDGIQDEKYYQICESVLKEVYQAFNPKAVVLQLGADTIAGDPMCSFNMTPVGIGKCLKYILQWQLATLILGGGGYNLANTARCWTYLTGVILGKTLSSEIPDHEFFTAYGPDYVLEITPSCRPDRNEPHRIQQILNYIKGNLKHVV",
  "conditions": "cited from earlier work",
  "data": [
    {"smiles": "CC(/C=C/C(=O)NO)=C\\[C@@H](C)C(=O)c1ccc(N(C)C)cc1", "note": "[TSA, trichostatin A]", "values": [
      {"measurement": "block of HDAC8", "value": "do not block"}
    ]}
  ]
}
